Values of other authors as cited in PMC9866728, “Dosing Methods to Enable Cell-Based In Vitro Testing of Complex Substances: A Case Study with a PAH Mixture” (Toxics, 2022).

Details: Table S1; ref PubChem; cited from earlier work

SMILES: c1ccc2ccccc2c1 [Naphthalene]
- LogKow (PubChem): 3.3
